# Results as given in PMC7723054.
# Some of the results follow.
# What was measured:
# Experiment in all cases: FOREST: bead pull-down of RNA structure library v1, barcode microarray; U1A/LIN28A: 20 mM HEPES pH 7.5, 80 mM KCl, 20 mM NaCl, 10% glycerol, 2 mM DTT, 0.1 ug/uL BSA, 4 C; BG4/CIRBP/DHX36: 10 mM Tris-HCl pH 7.5, 100 mM KCl (or LiCl),; high values mean tight binding
# LIN28A = target: T1, LIN28A (human?, UniProt Q9H9Z2 1-209)
# T1 sequence: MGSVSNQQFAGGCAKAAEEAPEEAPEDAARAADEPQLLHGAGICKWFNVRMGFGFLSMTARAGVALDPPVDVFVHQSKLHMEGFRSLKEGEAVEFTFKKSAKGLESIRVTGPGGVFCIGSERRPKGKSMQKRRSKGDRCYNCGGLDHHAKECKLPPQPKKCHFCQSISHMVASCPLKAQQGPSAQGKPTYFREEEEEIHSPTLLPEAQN
# CIRBP = target: T2, CIRBP (Homo sapiens, UniProt Q14011 1-172)
# T2 sequence: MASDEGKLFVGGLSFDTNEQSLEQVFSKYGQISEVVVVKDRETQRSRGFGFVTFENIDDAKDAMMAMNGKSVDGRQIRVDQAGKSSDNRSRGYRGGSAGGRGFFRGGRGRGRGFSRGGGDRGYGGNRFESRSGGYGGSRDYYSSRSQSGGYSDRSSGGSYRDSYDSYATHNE
# DHX36 = target: T3, DHX36 (Homo sapiens, UniProt Q9H2U1 1-1008)
# T3 sequence: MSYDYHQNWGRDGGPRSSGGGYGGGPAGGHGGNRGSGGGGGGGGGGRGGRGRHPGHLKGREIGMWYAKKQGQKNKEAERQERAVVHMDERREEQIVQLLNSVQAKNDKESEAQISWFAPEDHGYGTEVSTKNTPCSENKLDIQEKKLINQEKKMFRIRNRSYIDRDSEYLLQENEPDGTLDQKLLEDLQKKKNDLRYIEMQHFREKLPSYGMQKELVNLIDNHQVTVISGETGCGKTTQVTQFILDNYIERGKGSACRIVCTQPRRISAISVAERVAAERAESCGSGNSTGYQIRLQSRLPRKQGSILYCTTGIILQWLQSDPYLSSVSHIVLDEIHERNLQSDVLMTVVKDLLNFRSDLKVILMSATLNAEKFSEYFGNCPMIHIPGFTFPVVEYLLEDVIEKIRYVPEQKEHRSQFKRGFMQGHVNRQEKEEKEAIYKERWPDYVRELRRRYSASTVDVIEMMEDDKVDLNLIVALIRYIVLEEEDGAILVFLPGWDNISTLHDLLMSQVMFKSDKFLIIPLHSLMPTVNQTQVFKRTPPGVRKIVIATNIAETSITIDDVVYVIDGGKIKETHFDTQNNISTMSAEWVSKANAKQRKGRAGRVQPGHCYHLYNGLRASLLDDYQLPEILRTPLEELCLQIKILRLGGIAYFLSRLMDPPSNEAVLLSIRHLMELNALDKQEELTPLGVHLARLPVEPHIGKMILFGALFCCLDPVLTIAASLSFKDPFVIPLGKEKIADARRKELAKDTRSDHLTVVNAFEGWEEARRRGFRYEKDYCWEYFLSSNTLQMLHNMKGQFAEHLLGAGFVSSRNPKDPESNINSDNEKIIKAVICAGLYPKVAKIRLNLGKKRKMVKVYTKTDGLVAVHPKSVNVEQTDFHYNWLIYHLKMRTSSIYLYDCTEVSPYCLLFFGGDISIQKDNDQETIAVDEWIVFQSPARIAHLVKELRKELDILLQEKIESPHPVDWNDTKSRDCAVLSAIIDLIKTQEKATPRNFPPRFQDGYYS
Binder,binding signal (LIN28A) [z-score],binding signal (CIRBP) [z-score],binding signal (DHX36) [z-score]
hsa-mir-361 (structured_RNA) RNA: GGGAAAGGCCGAUCUACGUUUAGCAAGAGGUGUACGAAGUUUCAGCGGUACUUUAUAAUUUCAAAAAGUCCCGCUGAAGCUUCGUGCAC,1.2,1.51,0.067
hsa-mir-29b-1 (structured_RNA) RNA: GGGAACAGCCUGGCGGUAUUAAACUGUGGGUGUACGAAGUUUCAGCUUUAGAUUUAAAUAGUGAUUGUCUAGGCUGAAGCUUCGUGCAC,1.19,-0.331,0.197
hsa-mir-4463 (structured_RNA) RNA: GGGAACAGUACGGUUCGAACACGACGCCGGUGUACGAAGUUUCAGCUUUCUGAAUUUGUGAGAGCUGAAGCUUCGUGCAC,1.17,-0.094,-0.572
hsa-mir-129-2 (structured_RNA) RNA: GGGAAUAAUUGGCCCGUGUGACCCAUUCGGUGUACGAAGUUUCAGCGCUUGCUGUACAUAACUCAAUAGCCGGAAGCGCUGAAGCUUCGUGCAC,1.16,0.424,0.633
hsa-mir-647 (structured_RNA) RNA: GGGAAGUCGUCAUAGCAACUACAACGAUGGUGUACGAAGUUUCAGCCUUCAGCCCCAGGAAGCCUUGGUCGGGGGCAGGAGGCUGAAGCUUCGUGCAC,1.16,-0.509,0.191
hsa-mir-1293 (structured_RNA) RNA: GGGACAAACUACUGCGUCUAGGAAUGAUGGUGUACGAAGUUUCAGCGUGCAGCUUGUACCUGCACGCUGAAGCUUCGUGCAC,1.14,0.178,1.13
hsa-mir-1323 (structured_RNA) RNA: GGGAAUCCAUGUAGGACCUGCGGAGAUAGGUGUACGAAGUUUCAGCUUCUGUGGUUUGAAAGGAAGCUGAAGCUUCGUGCAC,1.14,1.22,-0.305
hsa-mir-4452 (structured_RNA) RNA: GGGACCCGCAUCUACCCUUCAUACUGAGGGUGUACGAAGUUUCAGCGCAAGGCUGUAGUGUGCACAGCCUUGAGCUGAAGCUUCGUGCAC,1.14,0.828,-0.968
hsa-mir-6790 (structured_RNA) RNA: GGGAGAUUGAUGGGAGAACGAUCACUUUGGUGUACGAAGUUUCAGCGUUCGGGGGUUCCGACGGCGACGCUGAAGCUUCGUGCAC,1.13,1.66,2.04
hsa-mir-4708 (structured_RNA) RNA: GGGAAAGACUUGGUUCCCUGGGUACACCGGUGUACGAAGUUUCAGCUGCUCCUUGAACAGGAGGAGCAGCUGAAGCUUCGUGCAC,1.13,0.801,-0.292
hsa-mir-4653 (structured_RNA) RNA: GGGAAGAUACGUCUCGUAUGAACUUGCAGGUGUACGAAGUUUCAGCCACCAAAGGGUUAAGGGUUUGCUCUGGAGGCUGAAGCUUCGUGCAC,1.12,1.01,0.127
hsa-mir-6755 (structured_RNA) RNA: GGGACCGAGAAGGAAUUGGUUCUAUGACGGUGUACGAAGUUUCAGCAACGUUAUGUGUGGUCUUUAACCUGUUGCUGAAGCUUCGUGCAC,1.12,0.197,-0.375
hsa-mir-664b (structured_RNA) RNA: GGGAAGUACCGACUGACAUUCCUCGGCUGGUGUACGAAGUUUCAGCUGGGUAGAAAGUAUUAUUCUAUUCAGCUGAAGCUUCGUGCAC,1.12,1.32,-0.328
